Data as given in US9956197B2 (priority 2013, dated 2018).

How the values were obtained:
[1] = system: Lithium-pilocarpine induced status epilepticus; assay: Lithium-pilocarpine induced status epilepticus model, prevention study; assay type: in vivo, Sprague-Dawley rats
[2] = system: Lithium-pilocarpine induced status epilepticus; assay: Lithium-pilocarpine induced status epilepticus model, intervention study; assay type: in vivo, Sprague-Dawley rats; details: iv per table head, injection amount 46 mg/kg

CCC(OC(N)=O)C(O)c1ccccc1Cl (racemic) [Compound 8, 1-(2-chlorophenyl)-1-hydroxybutyl-2-carbamate]
Prevention (rat, ip) Protection % ([1]; injection amount 60 mg/kg): ^a60 (83.3%)

C[C@H](OC(N)=O)[C@@H](O)c1ccc(Cl)cc1Cl [Compound 36, 1-(2,4-dichlorophenyl)-(S)-1-hydroxypropyl-(S)-2-carbamate]
Intervention (rat, iv) Protection % [2]: ^a46 (66.7%) | Prevention (rat, ip) Protection % ([1]; injection amount 73.6 mg/kg): ^a73.6 (100%)

CCCC[C@H](OC(N)=O)[C@@H](O)c1ccc(Cl)cc1Cl [Compound 43, 1-(2,4-dichlorophenyl)-(S)-1-hydroxyhexyl-(S)-2-carbamate]
Intervention (rat, iv) Protection % [2]: ^a46 (16.7%)

C[C@@H](OC(N)=O)[C@H](O)c1c(Cl)cccc1Cl [Compound 46, 1-(2,6-dichlorophenyl)-(R)-1-hydroxypropyl-(R)-2-carbamate]
Prevention (rat, ip) Protection % ([1]; injection amount 60 mg/kg): ^a60 (66.7%)

CC(C)[C@H](OC(N)=O)[C@@H](O)c1c(Cl)cccc1Cl
Intervention (rat, iv) Protection % [2]: ^a46 (66.7%) | Prevention (rat, ip) Protection % ([1]; injection amount 60 mg/kg): ^a60 (83.3%)

C[C@@H](OC(=O)NC1CC1)[C@H](O)c1ccccc1Cl [Compound 25, 1-(2-chlorophenyl)-(R)-1-hydroxypropyl-(R)-2-N-cyclopropylcarbamate]
Prevention (rat, ip) Protection % ([1]; injection amount 60 mg/kg): ^a60 (100%)

CC(OC(N)=O)C(O)c1ccccc1Cl (racemic) [Compound 3, 1-(2-chlorophenyl)-1-hydroxypropyl-2-carbamate]
Intervention (rat, iv) Protection % [2]: ^a46 (83.3%)

C[C@H](OC(N)=O)[C@H](O)c1ccccc1Cl [Compound 5, 1-(2-chlorophenyl)-(R)-1-hydroxypropyl-(S)-2-carbamate]
Intervention (rat, iv) Protection % [2]: ^a46 (66.7%)

CC[C@H](OC(N)=O)[C@@H](O)c1ccccc1Cl [Compound 6, 1-(2-chlorophenyl)-(S)-1-hydroxybutyl-(S)-2-carbamate]
Prevention (rat, ip) Protection % ([1]; injection amount 60 mg/kg): ^a60 (100%)

C[C@@H](OC(N)=O)[C@@H](O)c1ccccc1Cl [Compound 4, 1-(2-chlorophenyl)-(S)-1-hydroxypropyl-(R)-2-carbamate]
Prevention (rat, ip) Protection % ([1]; injection amount 60 mg/kg): ^a60 (50%)

C[C@H](OC(N)=O)[C@@H](O)c1c(Cl)cccc1Cl [Compound 37, 1-(2,6-dichlorophenyl)-(S)-1-hydroxypropyl-(S)-2-carbamate]
Prevention (rat, ip) Protection % ([1]; injection amount 35 mg/kg): ^a35 (100%)

CCCC[C@H](OC(N)=O)[C@@H](O)c1c(Cl)cccc1Cl [Compound 44, 1-(2,6-dichlorophenyl)-(S)-1-hydroxyhexyl-(S)-2-carbamate]
Intervention (rat, iv) Protection % [2]: ^a46 (83.3%)

CCCNC(=O)OC(C)C(O)c1ccccc1Cl (racemic) [Compound 30, 1-(2-chlorophenyl)-1-hydroxypropyl-2-N-propylcarbamate]
Intervention (rat, iv) Protection % [2]: ^a46 (83.3%) | Prevention (rat, ip) Protection % ([1]; injection amount 73.6 mg/kg): ^a73.6 (50%)

CNC(=O)OC(C)C(O)c1ccccc1Cl (racemic) [Compound 29, 1-(2-chlorophenyl)-1-hydroxypropyl-2-N-methylcarbamate]
Prevention (rat, ip) Protection % ([1]; injection amount 60 mg/kg): ^a60 (100%)

C[C@H](OC(N)=O)[C@@H](O)c1cccc(Cl)c1Cl [Compound 38, 1-(2,3-dichlorophenyl)-(S)-1-hydroxypropyl-(S)-2-carbamate]
Prevention (rat, ip) Protection % ([1]; injection amount 73.6 mg/kg): ^a73.6 (100%)

CC(C)[C@H](OC(N)=O)[C@@H](O)c1ccccc1Cl [Compound 9, 1-(2-chlorophenyl)-(S)-1-hydroxy-3-methyl-butyl-(S)-2-carbamate]
Intervention (rat, iv) Protection % [2]: ^a46 (66.7%) | Prevention (rat, ip) Protection % ([1]; injection amount 60 mg/kg): ^a60 (83.3%)

CC(OC(=O)NC1CC1)C(O)c1ccccc1Cl (racemic) [Compound 32, 1-(2-chlorophenyl)-1-hydroxypropyl-2-N-cyclopropylcarbamate]
Prevention (rat, ip) Protection % ([1]; injection amount 60 mg/kg): ^a60 (100%)
